# Measured affinities in a library of Ab-14 light chain variants

The measurements come from Li et al. 2023 (doi:10.1038/s41467-023-39022-2) through the FLAb antibody collection.

Target: peptide PDVDLGDISGINAS, taken from heptad repeat 2 (HR2) of SARS-CoV-2 spike.

Ab-14 is the parent antibody, in scFv form: VH, then a (GGGGS)3 linker, then VL. The heavy chain is unchanged in all variants.
VH: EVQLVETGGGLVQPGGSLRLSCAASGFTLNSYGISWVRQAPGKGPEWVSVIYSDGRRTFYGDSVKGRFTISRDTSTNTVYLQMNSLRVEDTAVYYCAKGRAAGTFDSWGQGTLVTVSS
VL: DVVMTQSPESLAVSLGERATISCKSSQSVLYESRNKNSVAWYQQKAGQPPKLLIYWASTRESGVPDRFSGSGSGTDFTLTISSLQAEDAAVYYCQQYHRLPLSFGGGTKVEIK

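The parent was found by panning a naive human phage display library on the peptide. Designed CDR sequences, proposed from the first random library and measured here. Group labels follow the data file (Ctrl: baseline library sampled from a position-specific scoring matrix, with some repeated check sequences; Rand: our label for a block that the file lists under HC and that is probably the random mutants of the ten best first-round binders; GP: Gaussian process model; HC: hill climbing; Gen: genetic algorithm; Gibbs: Gibbs sampling; a sequence that several methods proposed may carry one label only). AlphaSeq pools MATa yeast showing the antibodies with MATalpha yeast showing the peptide. The frequency of each diploid, read from paired DNA barcodes, reflects how well the two displayed proteins bind. Each replicate has its own calibration line, from reference interactions of the BCL2 family. Each pool was mated in six replicate cultures.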

The parent's light chain CDRs are KSSQSVLYESRNKNSVA, WASTRES, QQYHRLPLS; each variant's own CDRs replace them letter for letter. This list holds designs with at most six substitutions. Values are log10 of the apparent Kd in nM; lower means stronger binding. The mean shown is taken over the replicates in which the pair was detected. An entry "no signal" has no value in the source: the pair was not observed among the diploids in any replicate. This suggests poor binding but is not conclusive. The parent sequence was in this pool as ten entries: three were never detected, three once, and four in most replicates, with averages from 0.34 to 2.37. As a blank, each scFv also met three strains without target: over all light chain designs, 4% of these pairings were detected, typically at 2.64 and seldom below 1.59. A sequence measured in both rounds can read differently, since the two assays cover different ranges. The authors averaged sequences with at least three values out of six and counted those with two or fewer as poor binders. Where one sequence has several entries in the source, the replicates are pooled.

Variant KISQSDLYESRNKNSVA | DASTRES | QQYHRLPLS [GP_HC] showed -0.36 (6 of 6 replicates). For KISQSVLYEDRNKNSVA | NASTRFS | QQYHRLPLS [GP_Gen], the assay gave -0.39 (6 of 6 replicates). With KSSQGVLYESRNKNSVA | WASTRED | QQYHRLPLS [Ctrl] the result was 1.33 (1 of 6 replicates). With KFEQGVLYESRNKNSVA | GASTRES | QQYHRLPLS [GP_HC] the result was 0.14 (6 of 6 replicates). Variant KISQSVLYESRNKNSVA | NASTRYS | QQYHRLPLS [GP_Gen] gave -0.12 (6 of 6 replicates). With KSSQSVMAESRNKNSVA | EASTRES | QGYHRLPLS [Ctrl] the result was 1.80 (6 of 6 replicates). Variant KLEQSWLYESRNKNSVA | NASERES | QQYHRLPLS [GP_Gen] gave 0.04 (6 of 6 replicates). Variant KLPQSELYESRNKNSVA | NASKRES | QQYHRLPLS [GP_Gen] showed -0.36 (6 of 6 replicates).

Variant KFEQSWLYESRNVNSVA | QASTRMS | QQYHRLPLS [GP_Gibbs] gave 0.04 (6 of 6 replicates). Variant KLQWLWLYESRNKNSVA | NASTRES | QQYHRLPLS [GP_Gibbs] showed 0.32 (6 of 6 replicates). Variant KSSISHLYESRMKNSVA | EASTRES | QQYHRLPLS [GP_HC] gave 0.95 (6 of 6 replicates). With KLSQSVLYESRNKNSVA | WASTRES | QQYFGLPLS [Ctrl] the result was 1.36 (6 of 6 replicates). With KSVQSELYESRNKNSVA | HASTAES | QQYHRLPLS [Ctrl] the result was 0.75 (6 of 6 replicates). Variant KSSQSVLAESRNKNSVA | FGSTRES | QQYHRLPLS [Ctrl] gave 1.49 (6 of 6 replicates). With KLSQSCLYESRNKNSVA | EASTRLS | QQYHRLPLS [GP_Gen] the result was 0.26 (6 of 6 replicates). Variant KQGQSVLYESLNKNSVA | QASTREL | QQYERLPLS [Ctrl] showed no signal (0 of 6 replicates).

Variant KSSQSVLEDSRNKNSVA | WASTRES | QQYARLPLS [Ctrl] gave no signal (0 of 6 replicates). Variant KVEFSVLYESRNKNSVA | QASTREK | QQYHRLPLS [GP_Gibbs] showed 0.35 (6 of 6 replicates). Variant KLSQSVLYESRNKNSVA | NASTRES | QQYHRLPLF [GP_Gen] gave -0.06 (6 of 6 replicates). For KLSQSTLYESRNKNAVA | NASTRES | QQYHRLPLS [GP_Gen], the assay gave -0.47 (6 of 6 replicates). Variant KSSQSMLYESRNKNSVA | WASTREN | QQYHRLPLS [Ctrl] gave 1.73 (6 of 6 replicates). For KSSQSVLYESRNNNSVA | WAKTRES | QQYHRLPLS [Ctrl], the assay gave 3.64 (1 of 6 replicates). For KSSQSVLYDSRNKNSVA | EASTRES | QQYHRLPLS [Ctrl], the assay gave 1.51 (6 of 6 replicates). Variant KTSQSVLYESRNKNSVA | YASTRES | QQKHRLPLS [Ctrl] gave no signal (0 of 6 replicates).

For KMSQSELYESRNKNSVA | NASTRES | QQYHRLPLS [GP_Gen], the assay gave 0.09 (6 of 6 replicates). Variant KSLFSVLYESRNKNSVA | HASTRED | QQYHRMPLS [Rand] showed 1.30 (2 of 6 replicates). For KSSQSVLGESRNKNSVA | TASTRES | QQYHRLPLS [Ctrl], the assay gave 1.25 (6 of 6 replicates). Variant KISQSVVYESRNKNSVA | MASWRES | QQYHRLPLS [Ctrl] showed 0.72 (6 of 6 replicates). Variant KSSQSVLYEQRNKNSVS | WASTRES | QQYHRLPLS [Ctrl] showed 1.56 (1 of 6 replicates). For KSSHSYLYESRNKNSVA | AASTRES | QQYHRLPLS [GP_HC], the assay gave 0.48 (6 of 6 replicates). With KFSQSDLYESRNKNSVA | EASTRCS | QQYHRLPLS [GP_Gen] the result was -0.15 (6 of 6 replicates). With KLQQSVLYESRNKNSVA | GASTREV | QQYHRLPLS [GP_Gen] the result was -0.43 (6 of 6 replicates).

Variant KWSQSVLYESTNKNSVA | WASTRES | QQYHRDPLS [Ctrl] gave 1.66 (5 of 6 replicates). Variant KLSQSVMYESRNKNSVA | QASTRES | QQYHRLPLS [GP_Gen] gave 0.55 (6 of 6 replicates). Variant KSSQSVLYESRNKNSVA | NASTRES | QQYHRLPLF [Ctrl] showed 0.47 (6 of 6 replicates). Variant KISQSVLQESRNKNSVA | DASTRES | QQYHRLPLS [GP_HC] showed -0.31 (6 of 6 replicates). Variant KCSQSVLAESGNKNSVA | WASTRES | QQTARLPLS [Ctrl] gave no signal (0 of 6 replicates). Variant KSSSSVMYESRNKNSVA | WASTRES | QQYERLPFS [Ctrl] showed 2.03 (5 of 6 replicates). For KSSQSFLYESRNPNSVA | GASTRES | QQYHRLPLS [GP_HC], the assay gave -0.29 (6 of 6 replicates). For KLSQSELYESRNPNSVA | NASTRES | QQYHRLPLS [GP_Gen], the assay gave -0.36 (6 of 6 replicates).

Variant KSSQSVLYESRNKNSVA | WAFTRES | QQYHRLPLS [Ctrl] gave 2.10 (1 of 6 replicates). For KSSQSMLYESGNKNSVA | HASTRES | QQYHRLPLS [GP_HC], the assay gave 0.05 (6 of 6 replicates). With KSSQSVLNESSNKNSVA | WASEREE | QQYHRHPLS [Ctrl] the result was 0.50 (6 of 6 replicates). For KSSISELEESRNKNSVA | EASTRES | QQYHRLPLS [GP_HC], the assay gave 0.65 (6 of 6 replicates). Variant KSSQSVDYESRNKNSVA | DASTRES | QQYHRLPLS [Ctrl+GP_Gen] showed 0.26 (12 of 12 replicates). For KLSQSDLYESRMKNSVA | NASTRES | QQYHRLPLS [GP_Gen], the assay gave 0.25 (6 of 6 replicates). With KFSQSVPYESRNPNSVA | WASTRES | QCYHRLPLS [Ctrl] the result was 1.81 (4 of 6 replicates). With ACSQSDLYESRNKNSVA | WGSTRNS | QQYHRLPLS [Ctrl] the result was 0.81 (6 of 6 replicates).

3 of these entries, quoted again:

CDR-L1	CDR-L2	CDR-L3	group	mean, log10 nM	detected
KLPQSELYESRNKNSVA	NASKRES	QQYHRLPLS	GP_Gen	-0.36	6/6
KFEQGVLYESRNKNSVA	GASTRES	QQYHRLPLS	GP_HC	0.14	6/6
KFEQSWLYESRNVNSVA	QASTRMS	QQYHRLPLS	GP_Gibbs	0.04	6/6